An excerpt weighted towards active compounds, which were near 1.8% of everything screened.
UUG fidelity: modulators of yeast start codon fidelity, primary screen, whole organism, S. cerevisiae, single point, plate reader | S. cerevisiae UUG-firefly luciferase reporter, luminescence/redox ratio | activity score, % at 18.7 µM | hit rate 0.13% among 350,000;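 active = replicate mean at a twofold rise or more, about +100% in these data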;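 note: firefly luciferase made from a UUG start codon reports start codon fidelity; reporter light over untreated wells divided by growth signal over untreated wells; some hits fall short of that in this replicate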
E-selectin induc: E-selectin induction on HUVECs. P16581. HUVEC E-selectin immunofluorescence imaging; normalized: neutral wells 0, TNF-alpha wells 100. activation, % at 7.58 µM. 0.37% of 260,000 active;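 active means mean E-selectin-positive cell signal at least 10% of the positive control, reached in at least 60% of replicates, without over 20% cell loss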
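Test system – human umbilical vein endothelial cells (HUVEC), E-selectin induction · Input – 3,000 HUVEC seeded per well · Buffer or medium – EGM-2, gelatin · Compound dosing – single-point compound dose · Detection – immunofluorescence imaging · Measure – percent E-selectin-positive cells · Controls – TNF-alpha high, DMSO low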
DENV2 CPE rescue: DENV2-induced cell death inhibition. DENV2-infected cells, cytopathic effect rescue, plate reader. CPE inhibition, % at 9.99 µM. 1.7% of 350,000 active. AID 651640; in the data active means CPE inhibition above about 20%, passing the limit was not always enough; tested in BHK-21 cells;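 further: 0% = median of neutral control wells and 100% = median of positive control wells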
Cneo AK release: causes C. neoformans cell lysis; adenylate kinase release luminescence, 4 h; normalised: neutral wells 0, clomiphene wells 100; AID 651654; lysis activity, % at 15 µM; 0.2% of 360,000 active;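 active means mean lysis activity across replicates of at least 80%, whatever share of replicates individually reach that level; inactive means mean lysis activity below 80%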
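Assay system: C. neoformans cells. Amount: yeast cell density of 5 × 10^6 cells/mL. Technique: AK luminescence. Buffer or medium: YPD. Times: static 4 h at 37 °C with compound, 1 h detection. Dosing: single-point compound dose. Read-out: lysis from increased AK signal.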
An asterisk follows results filed as active; x = no result; ! = repeats disagree.

SMILES	UUG fidelity	E-selectin induc	DENV2 CPE rescue	Cneo AK release
CCC(C)[C@H]1CNC(=S)N1CCc1cc(C(F)(F)F)cc(C(F)(F)F)c1 (stereo not given in full)	-24	0	81*	20
CCC(C)[C@H]1CNCCN1CCc1cc(C(F)(F)F)cc(C(F)(F)F)c1 (stereo not given in full)	-10	0	44*	-2
CC(O)[C@H]1CNC(=S)N1CCc1cccc(F)c1 (stereo not given in full)	-31	0	-6	0
CCCCN1C(=O)/C(=C/C=C2\SCCN2C)SC1=S	x	38*	4	x
CCc1ccc(Nc2n[n+](-c3ccccc3)c(-c3ccc(C(=O)O)cc3)s2)cc1	-19	x	23*	-1
CCc1ccc(Nc2n[n+](-c3ccccc3)c(-c3ccc(SC)cc3)s2)cc1	-10	0	2	2
CNC[C@H]1Oc2ccc(NC(=O)Nc3c(C)noc3C)cc2C(=O)N([C@H](C)CO)C[C@H]1C	-15	0	-1	6
O=C(NC1CCCCC1)N[C@H]1CC[C@@H](CCNS(=O)(=O)c2ccc(Cl)cc2)O[C@@H]1CO	9	1	-2	7
COc1ccccc1C=NNC(=O)c1ccccc1OCCOc1ccccc1	-30	1	75*	0
COc1cccc(/C=N/NC(=O)C(=O)N/N=C/c2cccc(OC)c2OC)c1OC	-9	x	85*	-2
COc1ccccc1/C=N/NC(=O)c1ccccc1Cl	x	x	5	x
CSCCC(NC(=O)COc1ccccc1)C(=O)OCCOc1ccc(C)cc1 (stereo not given)	-9	0	27*	0
Cc1ccc(C(NC(=O)Nc2ccccn2)C(Cl)(Cl)Cl)cc1F (stereo not given)	x	42*	-1	x
O=C(NCC[C@@H]1CC[C@@H](NC(=O)c2ccccc2F)[C@@H](CO)O1)c1ccc2c(c1)OCO2	-15	0	-2	1
C[C@@H]1CN([C@@H](C)CO)C(=O)c2cccc(NS(=O)(=O)c3ccccc3)c2O[C@H]1CN(C)C(=O)Nc1ccccc1	25	x	13	52
Cc1ccc(SC(=O)c2c(C)noc2-c2cc(C)on2)cc1	-11	2	41*	2
CCS(=O)(=O)Nc1ccc2c(c1)C(=O)N(C)C[C@@H](OC)[C@@H](C)CN[C@H](C)CO2	-24	0	55*	-1
CO[C@H]1CN(C)C(=O)c2cc(NS(=O)(=O)CC(F)(F)F)ccc2OC[C@@H](C)NC[C@H]1C	-9	0	-2	-1
CO[C@H]1CN(C)C(=O)c2cc(NS(=O)(=O)CC(F)(F)F)ccc2OC[C@H](C)NC[C@H]1C	-5	0	12	-2
CCS(=O)(=O)Nc1ccc2c(c1)C(=O)N(C)C[C@H](OC)[C@H](C)CN[C@H](C)CO2	-21	0	21*	2

Among those listed so far, 5 have nitrogen in an aromatic ring.
SMILES	UUG fidelity	E-selectin induc	DENV2 CPE rescue	Cneo AK release
CCc1ccc(Nc2n[n+](-c3ccccc3)c(-c3ccc(C(=O)O)cc3)s2)cc1	-19	x	23*	-1
CCc1ccc(Nc2n[n+](-c3ccccc3)c(-c3ccc(SC)cc3)s2)cc1	-10	0	2	2
CNC[C@H]1Oc2ccc(NC(=O)Nc3c(C)noc3C)cc2C(=O)N([C@H](C)CO)C[C@H]1C	-15	0	-1	6
Cc1ccc(C(NC(=O)Nc2ccccn2)C(Cl)(Cl)Cl)cc1F (stereo not given)	x	42*	-1	x
Cc1ccc(SC(=O)c2c(C)noc2-c2cc(C)on2)cc1	-11	2	41*	2

Remaining list, next part
SMILES	UUG fidelity	E-selectin induc	DENV2 CPE rescue	Cneo AK release
CCN(C[C@H]1N[C@@](CC)(C(=O)OC)[C@H]2C(=O)N(C)C(=O)[C@@H]12)S(=O)(=O)c1ccc(C(F)(F)F)cc1	-13	x	52*	-1
CN1C(=O)c2cc(NC(=O)c3cccs3)ccc2OC[C@H]2O[C@@H](CC(=O)NCC(F)(F)F)CC[C@@H]21	-9	0	2	0
Cc1ccccc1-c1cnc2c(c1)C(=O)N([C@H](C)CO)C[C@@H](C)[C@@H](CN(C)CC1CCOCC1)O2	-10	x	0	-1
C[C@@H]1CN([C@@H](C)CO)C(=O)c2cc(NS(=O)(=O)c3cccs3)ccc2O[C@@H](C)CCCCO[C@H]1CN(C)Cc1ccccc1	x	x	42*	x
C[C@@H]1CCCCO[C@H](CN(C)C(=O)Cc2ccccc2)[C@@H](C)CN([C@@H](C)CO)C(=O)c2cc(NS(=O)(=O)c3cccs3)ccc2O1	9	0	-9	-3
C[C@@H]1CCCCO[C@@H](CN(C)Cc2ccc3c(c2)OCO3)[C@H](C)CN([C@H](C)CO)C(=O)c2cc(NS(=O)(=O)c3cccs3)ccc2O1	52	0	38*	8
C[C@@H]1CCCCO[C@@H](CN(C)Cc2ccc3c(c2)OCO3)[C@@H](C)CN([C@H](C)CO)C(=O)c2cc(NS(=O)(=O)c3cccs3)ccc2O1	40	0	-2	23
C[C@@H]1CCCCO[C@@H](CN(C)C(=O)Cc2ccccc2)[C@H](C)CN([C@H](C)CO)C(=O)c2cc(NS(=O)(=O)c3cccs3)ccc2O1	1	0	61*	-3
COc1ccc(CN(C)C[C@H]2OCCCC[C@H](C)Oc3ccc(NS(=O)(=O)c4cccs4)cc3C(=O)N([C@H](C)CO)C[C@H]2C)cc1	15	0	52*	1
C[C@@H]1CN([C@@H](C)CO)C(=O)c2cc(C3=CCCCC3)cnc2O[C@@H]1CN(C)C(=O)c1ccc2c(c1)OCO2	10	0	-4	2
C[C@H](CO)N1C[C@H](C)[C@@H](CN(C)C(=O)Nc2cccc3ccccc23)Oc2ccc(NC(=O)CCN3CCOCC3)cc2CC1=O	x	0	9	x
CO[C@@H]1CN(C)C(=O)c2cc(NC(=O)NC(C)C)ccc2OC[C@H](C)NC[C@@H]1C	x	0	x	55
C[C@H](CO)N1C[C@H](C)[C@@H](CN(C)Cc2ccccc2)OCCCC[C@H](C)Oc2ccc(NS(=O)(=O)c3cccs3)cc2C1=O	5	x	-8	3
C[C@H](CO)N1C[C@H](C)[C@H](CN(C)Cc2ccccc2)OCCCC[C@H](C)Oc2ccc(NS(=O)(=O)c3cccs3)cc2C1=O	31	x	-3	91*
O=C(COC(=O)C1CCN(c2ccc(C(F)(F)F)cn2)CC1)c1ccccc1	-11	x	-11	-3
CCOc1ccc(C(=O)COC(=O)C2CCN(c3ccc(C(F)(F)F)cn3)CC2)cc1	-1	0	74*	-1
CC(C)(C)N(Cc1ccccc1)C(=O)COC(=O)C1CCN(c2ccc(C(F)(F)F)cn2)CC1	-10	x	44*	-1
[N-]=[N+]=Nc1ccccc1C[C@@]1(C(=O)NCCN2CCOCC2)N=C(c2ccc(OCCCO)cc2)O[C@@H]1c1ccccc1N=[N+]=[N-]	0	x	6	-1
C/C=C/c1ccc(C2[C@H]3CNC[C@@H]2N3S(=O)(=O)c2ccccc2C)cc1 (stereo not given in full)	x	0	20*!	x
C/C=C/c1ccc2c(c1)O[C@H](CN(C)C(=O)Nc1ccc(C(F)(F)F)cc1)[C@H](C)CN([C@@H](C)CO)S2(=O)=O	-19	1	-3	1
CN(C)C(=O)c1ccc(-c2ccccc2[C@@H]2[C@@H](C#N)N(C(=O)C3CC3)[C@@H]2CO)cc1	x	0	40*	x
CN(C)C(=O)c1ccc(-c2ccc([C@H]3[C@@H](C#N)N(C(=O)C4CCCC4)[C@H]3CO)cc2)cc1	14	-1	22*	-4
CN(C)C(=O)c1ccc(-c2ccccc2[C@@H]2[C@@H](CO)N(C(=O)C3CCCCC3)[C@H]2C#N)cc1	x	0	29*	x
CN(C)C(=O)c1ccc(-c2ccccc2[C@H]2[C@@H](C#N)N(C(=O)C3CCCC3)[C@@H]2CO)cc1	x	0	-3	x

From PubChem
